Assay results taken from US7632933B2, “Corticotropin releasing factor 2 receptor agonists” (priority 2002, dated 2009).

Key:
CRF2R = biological target: T1, CRF2R (Homo sapiens, UniProt Q13324); test: CRF2R agonist activity (EC50 and Emax), called comparative CRF binding; format: cell-based; conditions: CRF2R EC50 (nM), CRF2R
T1 sequence (Q13324 1-411): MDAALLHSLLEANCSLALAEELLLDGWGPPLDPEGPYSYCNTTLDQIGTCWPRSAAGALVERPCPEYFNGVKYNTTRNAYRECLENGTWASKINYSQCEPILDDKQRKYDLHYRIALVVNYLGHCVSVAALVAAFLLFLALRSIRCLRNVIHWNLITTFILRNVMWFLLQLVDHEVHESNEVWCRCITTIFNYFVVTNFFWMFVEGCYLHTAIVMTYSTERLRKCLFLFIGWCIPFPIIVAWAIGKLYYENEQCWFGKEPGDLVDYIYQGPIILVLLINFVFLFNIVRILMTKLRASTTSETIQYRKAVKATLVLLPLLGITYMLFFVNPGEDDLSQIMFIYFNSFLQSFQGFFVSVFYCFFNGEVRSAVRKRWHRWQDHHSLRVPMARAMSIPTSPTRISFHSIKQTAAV
Source text: (§1) The pharmacological activity and selectivity of the peptides of present invention can be determined using published test procedures. See, e.g, U.S. patent application Ser. No. 09/799,978. Because CRF2R and CRF1R are homologous proteins, it is expected that a certain proportion of agonists for CRF2R will also function as agonists of CRF1R. As discussed above, activation of CRF1R induces activation of the HPA axis since increased corticosteroid production leads to skeletal muscle atrophy. In most cases in which an increase in muscle mass or function is desired, it is not desirable to activate the HPA axis.
(§2) Because it is desirable to discriminate binding between CRF2R, as compared with CRF1R, the assays described above may be conducted using a cell, or membrane from a cell, which expresses only CRF2R or the assays can be conducted with a recombinant source of CRF2R. Cells expressing both forms of CRFR may be modified using homologous recombination to inactivate or otherwise disable the CRF1R gene. Alternatively, if the source of CRFR contains more than one CRFR type, the background signal produced by the receptor which is not of interest must be subtracted from the signal obtained in the assay. […] Known antagonists of CRFRs include, but are not limited to, antalarmin (CRF1R selective), antisauvagine-30 (CRF2R selective) and astressin (nonselective for CRF1R/CRF2R).
(§3) Cell-based assays include the steps of contacting cells which express CRF1R or CRF2R with a peptide of the present invention or control and measuring activation of the CRFR by measuring the expression or activity of components of the CRFR signal transduction pathways.
(§4) For example, after contact with a peptide of the present invention, lysates of the cells can be prepared and assayed for induction of cAMP. cAMP is induced in response to Gαs activation. Because Gαs is activated by receptors other than CRFR and because a test peptide may be exerting its effect through CRFRs or by another mechanism, two control comparisons are relevant for determining whether the peptide increases levels of cAMP via activation of a CRFR. One control compares the cAMP level of cells contacted with the peptide and the cAMP level of cells contacted with a control compound (i.e., the vehicle in which the peptide is dissolved).
(§5) In one example, cAMP induction is measured with the use of DNA constructs containing the cAMP responsive element linked to any of a variety of reporter genes can be introduced into cells expressing CRFRs. Such reporter genes include, but are not limited to, chloramphenicol acetyltransferase (CAT), luciferase, glucuronide synthetase, growth hormone, fluorescent proteins (e.g., Green Fluorescent Protein), or alkaline phosphatase. Following exposure of the cells to the peptide, the level of reporter gene expression can be quantitated to determine the peptide's ability to increase cAMP levels and thus determine the peptide's ability to activate the CRFR.
(§6) In addition to using cells expressing full length CRFRs, cells can be engineered which express CRFRs containing the ligand binding domain of the receptor coupled to, or physically modified to contain, reporter elements or to interact with signaling proteins. For example, a wild type CRFR or CRFR fragment can be fused to a G-protein resulting in activation of the fused G-protein upon agonist binding to the CRFR portion of the fusion protein. […] In addition, alternative pathways for induction of the CRE reporter could be eliminated to reduce basal levels.

CRF1R = biological target: T2, CRF1R (Homo sapiens, UniProt P34998); test: CRF1R agonist activity (EC50 and Emax), called comparative CRF binding; format: cell-based; conditions: CRF1R EC50 (nM), CRF1R
T2 sequence (P34998 24-415): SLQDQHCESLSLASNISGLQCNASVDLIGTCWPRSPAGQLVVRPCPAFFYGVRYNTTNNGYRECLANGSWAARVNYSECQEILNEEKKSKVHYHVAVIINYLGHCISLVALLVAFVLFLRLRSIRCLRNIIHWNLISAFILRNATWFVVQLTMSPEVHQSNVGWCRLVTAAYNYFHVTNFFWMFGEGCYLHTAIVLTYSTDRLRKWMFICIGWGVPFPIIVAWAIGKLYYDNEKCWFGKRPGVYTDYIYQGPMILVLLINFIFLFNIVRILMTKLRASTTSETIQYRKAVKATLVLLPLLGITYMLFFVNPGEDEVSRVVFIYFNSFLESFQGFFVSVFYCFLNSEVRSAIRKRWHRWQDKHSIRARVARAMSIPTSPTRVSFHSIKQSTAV
Source text: as §1, §2, §3, §4, §5, §6

SMILES	EC50 (CRF2R) [nM]	EC50 (CRF1R) [nM]
CC[C@H](C)[C@H](NC(=O)[C@@H](NC(=O)[C@H](CC(=O)O)NC(=O)[C@H](CC(C)C)NC(=O)[C@H](CC(C)C)NC(=O)[C@H](CC(C)C)NC(=O)[C@H](CCCNC(=N)N)NC(=O)[C@H](CC(N)=O)NC(=O)[C@H](CC(N)=O)NC(=O)[C@H](C)NC(=O)[C@H](C)NC(=O)[C@H](CCC(N)=O)NC(=O)[C@H](CCC(N)=O)NC(=O)[C@H](CCCCN)NC(=O)[C@H](CCC(=O)O)NC(=O)[C@H](CCCCN)NC(=O)[C@H](CCC(=O)O)NC(=O)[C@H](CCC(N)=O)NC(=O)[C@H](CCCCN)NC(=O)[C@H](CCC(=O)O)NC(=O)[C@@H](NC(=O)[C@H](CCC(=O)O)NC(=O)[C@@H](NC(=O)[C@H](CCSC)NC(=O)[C@H](CCCCN)NC(=O)[C@H](CCCNC(=N)N)NC(=O)[C@H](CC(C)C)NC(=O)[C@H](CC(C)C)NC(=O)[C@@H](NC(=O)[C@@H](NC(=O)[C@@H]1CCCN1C(=O)[C@H](CC(C)C)NC(=O)[C@H](CC(=O)O)NC(=O)[C@@H](NC(=O)[C@H](CO)NC(=O)[C@@H](NC(=O)[C@@H]1CCCN1C(=O)[C@@H]1CCCN1C(=O)CNC(=O)[C@@H]1CCC(=O)N1)[C@@H](C)CC)[C@@H](C)CC)[C@@H](C)O)C(C)C)[C@@H](C)CC)[C@@H](C)CC)[C@@H](C)O)C(N)=O [compound 46]	> 100	> 1000
CC[C@H](C)[C@H](NC(=O)[C@H](CCCNC(=N)N)NC(=O)[C@H](C)NC(=O)[C@H](CC(C)C)NC(=O)[C@H](CC(C)C)NC(=O)[C@H](CCCNC(=N)N)NC(=O)[C@H](C)NC(=O)[C@H](CC(N)=O)NC(=O)[C@H](CC(N)=O)NC(=O)[C@H](C)NC(=O)[C@H](C)NC(=O)[C@H](CCC(N)=O)NC(=O)[C@H](CCC(N)=O)NC(=O)[C@H](CCCCN)NC(=O)[C@H](CCC(=O)O)NC(=O)[C@H](CCCCN)NC(=O)[C@H](CCC(=O)O)NC(=O)[C@H](CCC(N)=O)NC(=O)[C@H](CCCCN)NC(=O)[C@H](CCC(=O)O)NC(=O)[C@@H](NC(=O)[C@H](CCC(=O)O)NC(=O)[C@@H](NC(=O)[C@@H](NC(=O)[C@H](CCCCN)NC(=O)[C@H](CCCNC(=N)N)NC(=O)[C@H](CC(C)C)NC(=O)[C@H](CC(C)C)NC(=O)[C@H](Cc1ccccc1)NC(=O)[C@@H](NC(=O)[C@@H]1CCCN1C(=O)[C@H](CC(C)C)NC(=O)[C@H](CC(=O)O)NC(=O)[C@@H](NC(=O)[C@H](CO)NC(=O)[C@@H](NC(=O)[C@@H]1CCCN1C(=O)[C@@H]1CCCN1C(=O)CNC(=O)[C@@H]1CCC(=O)N1)[C@@H](C)CC)[C@@H](C)CC)[C@@H](C)CC)C(C)C)[C@@H](C)CC)[C@@H](C)CC)C(N)=O [compound 281]	≥ 100	≥ 1000
CC[C@H](C)[C@H](NC(=O)[C@@H](NC(=O)[C@H](CC(=O)O)NC(=O)[C@H](CC(C)C)NC(=O)[C@H](CC(C)C)NC(=O)[C@H](CC(C)C)NC(=O)[C@H](CCCNC(=N)N)NC(=O)[C@H](CC(N)=O)NC(=O)[C@H](CC(N)=O)NC(=O)[C@H](C)NC(=O)[C@H](C)NC(=O)[C@H](CCC(N)=O)NC(=O)[C@H](CCC(N)=O)NC(=O)[C@H](CCCCN)NC(=O)[C@H](CCC(=O)O)NC(=O)[C@H](CCCCN)NC(=O)[C@H](CCC(=O)O)NC(=O)[C@H](CCC(N)=O)NC(=O)[C@H](CCCCN)NC(=O)[C@H](CCC(=O)O)NC(=O)[C@@H](NC(=O)[C@H](CCC(=O)O)NC(=O)[C@@H](NC(=O)[C@H](CCSC)NC(=O)[C@H](CCCCN)NC(=O)[C@H](CCCNC(=N)N)NC(=O)[C@H](CC(C)C)NC(=O)[C@H](CC(C)C)NC(=O)[C@H](CCC(N)=O)NC(=O)[C@H](CCC(N)=O)NC(=O)[C@@H]1CCCN1C(=O)[C@H](CC(C)C)NC(=O)[C@H](CC(=O)O)NC(=O)[C@@H](NC(=O)[C@H](CO)NC(=O)[C@@H](NC(=O)[C@@H]1CCCN1C(=O)[C@@H]1CCCN1C(=O)CNC(=O)[C@@H]1CCC(=O)N1)[C@@H](C)CC)[C@@H](C)CC)[C@@H](C)CC)[C@@H](C)CC)[C@@H](C)O)C(N)=O [compound 198]	29.9	
CC[C@H](C)[C@H](NC(=O)[C@@H](NC(=O)[C@H](CC(=O)O)NC(=O)[C@H](CC(C)C)NC(=O)[C@H](CC(C)C)NC(=O)[C@H](CC(C)C)NC(=O)[C@H](CCCNC(=N)N)NC(=O)[C@H](CC(N)=O)NC(=O)[C@H](CC(N)=O)NC(=O)[C@H](C)NC(=O)[C@H](C)NC(=O)[C@H](CCC(N)=O)NC(=O)[C@H](CCC(N)=O)NC(=O)[C@H](CCCCN)NC(=O)[C@H](CCC(=O)O)NC(=O)[C@H](CCCCN)NC(=O)[C@H](CCC(=O)O)NC(=O)[C@H](CCC(N)=O)NC(=O)[C@H](CCCCN)NC(=O)[C@H](CCC(=O)O)NC(=O)[C@@H](NC(=O)[C@H](CCC(=O)O)NC(=O)[C@@H](NC(=O)[C@H](CCSC)NC(=O)[C@H](CCCCN)NC(=O)[C@H](CCCNC(=N)N)NC(=O)[C@H](CC(C)C)NC(=O)[C@H](CC(C)C)NC(=O)[C@@H](NC(=O)[C@@H](NC(=O)[C@@H]1CCCN1C(=O)[C@H](CC(C)C)NC(=O)[C@H](CC(=O)O)NC(=O)[C@@H](NC(=O)[C@H](CO)NC(=O)[C@@H](NC(=O)[C@@H]1CCCN1C(=O)[C@@H]1CCCN1C(=O)CNC(=O)[C@@H]1CCC(=O)N1)[C@@H](C)CC)[C@@H](C)CC)[C@@H](C)O)[C@@H](C)O)[C@@H](C)CC)[C@@H](C)CC)[C@@H](C)O)C(N)=O [compound 42]	> 100	> 1000
CC[C@H](C)[C@H](NC(=O)[C@@H](NC(=O)[C@H](CC(=O)O)NC(=O)[C@H](CC(C)C)NC(=O)[C@H](CC(C)C)NC(=O)[C@H](CC(C)C)NC(=O)[C@H](CCCNC(=N)N)NC(=O)[C@H](CC(N)=O)NC(=O)[C@H](CC(N)=O)NC(=O)[C@H](C)NC(=O)[C@H](C)NC(=O)[C@H](CCC(N)=O)NC(=O)[C@H](CCC(N)=O)NC(=O)[C@H](CCCCN)NC(=O)[C@H](CCC(=O)O)NC(=O)[C@H](CCCCN)NC(=O)[C@H](CCC(=O)O)NC(=O)[C@H](CCC(N)=O)NC(=O)[C@H](CCCCN)NC(=O)[C@H](CCC(=O)O)NC(=O)[C@@H](NC(=O)[C@H](CCC(=O)O)NC(=O)[C@@H](NC(=O)[C@H](CCSC)NC(=O)[C@H](CCCCN)NC(=O)[C@H](CCCNC(=N)N)NC(=O)[C@H](CC(C)C)NC(=O)[C@H](CC(C)C)NC(=O)[C@H](Cc1ccc(O)cc1)NC(=O)[C@H](CO)NC(=O)[C@@H]1CCCN1C(=O)[C@H](CC(C)C)NC(=O)[C@H](CC(=O)O)NC(=O)[C@@H](NC(=O)[C@H](CO)NC(=O)[C@@H](NC(=O)[C@@H]1CCCN1C(=O)[C@@H]1CCCN1C(=O)CNC(=O)[C@@H]1CCC(=O)N1)[C@@H](C)CC)[C@@H](C)CC)[C@@H](C)CC)[C@@H](C)CC)[C@@H](C)O)C(N)=O [compound 56]	50.3	> 100
